Test results reported in patent US8795659B2 (priority 2004, dated 2014).

How the values were obtained:
[1] = Sub-acute IV (3-day) dosing of IPM in dogs; assay type: in vivo; details: iv daily × 3 days
Lewis Lung Carcinoma = experiment: Response of s.c. Lewis lung carcinoma in mice (Table 3); details: for Highest non-toxic dosage: IP

| Compound | Safety LD50 (mg/kg): dose with 100% survival [1] [mg/kg/day] | % ILS (excluding survivors) (Lewis Lung Carcinoma; 30 mg kg^-1/dose IP, Day 2 Q5 min × 7) [%] | % ILS (excluding survivors) (Lewis Lung Carcinoma; 200 mg kg^-1/dose IP, Day 2 Single dose) [%] | Highest non-toxic dosage (Lewis Lung Carcinoma; Day 2 Q5 min × 7) [mg kg^-1/dose] | Highest non-toxic dosage (Lewis Lung Carcinoma; Day 2 Single dose) [mg kg^-1/dose] |
| --- | --- | --- | --- | --- | --- |
| O=P(O)(NCCCl)NCCCl | 1 to 5 |  |  |  |  |
| NP(=O)(O)N(CCCl)CCCl |  | 17 | 15 | 30 | 200 |
